# According to US8796267B2, “Oxazolidinone derivatives and methods of use” (Concert Pharmaceuticals, Inc., priority 2006, dated 2014):
# How the values were obtained:
# [1] = in words
# [2] = chimpanzee urine, in words
SMILES,stabilization in primates [1],amount of deuterated M4 metabolite versus linezolid M4 metabolite [2]
[2H]C([2H])(NC(C)=O)[C@H]1CN(c2ccc(N3C([2H])([2H])C([2H])([2H])OC([2H])([2H])C3([2H])[2H])c(F)c2)C(=O)O1 [Compound 100],marked potentiation in the stabilization,significantly lower
[2H]C1([2H])OC([2H])([2H])C([2H])([2H])N(c2ccc(N3C[C@H](CNC(C)=O)OC3=O)cc2F)C1([2H])[2H] [Compound 101],marked potentiation in the stabilization,–
